Experimental data from US5807742A, “Neurokinin receptor cell lines” (Merrell Pharmaceuticals Inc., priority 1996, dated 1998).

Chains of the proteins cited; added tags and fusions are not shown.
UniProt P51144, whole entry: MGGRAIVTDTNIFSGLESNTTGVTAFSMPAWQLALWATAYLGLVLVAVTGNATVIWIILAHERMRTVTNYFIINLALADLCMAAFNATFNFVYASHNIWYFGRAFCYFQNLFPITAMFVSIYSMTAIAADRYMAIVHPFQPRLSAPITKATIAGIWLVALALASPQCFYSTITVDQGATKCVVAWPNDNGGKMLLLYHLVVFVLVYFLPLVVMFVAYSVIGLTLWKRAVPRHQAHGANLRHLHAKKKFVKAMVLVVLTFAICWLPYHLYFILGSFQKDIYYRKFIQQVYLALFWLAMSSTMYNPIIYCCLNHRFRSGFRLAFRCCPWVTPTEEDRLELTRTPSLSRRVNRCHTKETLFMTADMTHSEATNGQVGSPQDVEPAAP
UniProt P05363, whole entry: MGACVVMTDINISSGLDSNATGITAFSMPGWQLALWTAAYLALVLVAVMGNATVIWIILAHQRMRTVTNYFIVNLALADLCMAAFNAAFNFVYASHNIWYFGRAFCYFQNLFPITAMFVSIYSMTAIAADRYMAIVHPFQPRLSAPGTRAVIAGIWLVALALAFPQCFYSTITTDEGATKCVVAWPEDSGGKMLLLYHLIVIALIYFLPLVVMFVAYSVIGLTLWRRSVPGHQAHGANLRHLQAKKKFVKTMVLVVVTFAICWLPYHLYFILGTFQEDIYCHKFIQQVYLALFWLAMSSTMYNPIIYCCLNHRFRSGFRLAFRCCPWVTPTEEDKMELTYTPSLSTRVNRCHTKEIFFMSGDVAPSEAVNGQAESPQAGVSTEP

What was measured:
[1] = target: T1, NKA receptor (hamster urinary bladder) (Mesocricetus auratus, UniProt P51144); experiment: [125I]NKA receptor binding in hamster urinary bladder membranes (standard control); details: FIG. 4
T1 construct: the hamster urinary bladder membranes were run as a standard control; from tissue; host or cells: hamster urinary bladder membranes
Experimental: (§1) The homogenate is centrifuged at 48,000×g for 10 min at 4° C.

[2] = target: T2, neurokinin A receptor (Bos taurus, UniProt P05363); experiment: [125I]NKA receptor binding (saturation/Scatchard and competition) in B82 cells transfected with pSKR56S cDNA (SKLKB82#n); design: species or system bovine; details: SKLKB82#3 cells; FIG. 4
T2 construct: expressed in transfected cells
Experimental: as §1

[3] = target: T2, neurokinin A receptor; experiment: [3H]inositol-1-phosphate (IP1) accumulation in SKLKB82#3 cells; assay type: cell-based, bovine; details: three separate experiments in duplicate, FIG. 5

Row | Substance | potency rank-order, inhibition of [125I]NKA receptor binding (KI) [1] | potency rank-order, inhibition of [125I]NKA receptor binding (KI) [2] | EC50 [3] [µM]
1 | neurokinin A [NKA] | the most potent inhibitor of binding | – | –
2 | substance P | followed by Nle^10 NKA (4-10), substance P, and senktide | followed by Nle^10 NKA (4-10), substance P, and senktide | 4.8
